Molecules are shown by their SMILES. pKi: −log10 of the molar value.

A short description of the assay: Displacement of [3H]-Nisoxetine from NET in Sprague-Dawley rat frontal cortex membrane after 180 mins by microbeta scintillation counting method. The assay is classed as cell membranes. The procedure, abridged: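 Male Sprague-Dawley rat frontal cortex membranes in 50 mM Tris, 300 mM NaCl, 5 mM KCl pH 7.4, 8.0 mg/tube wet weight; [3H]nisoxetine 0.5 nM final; 180 min at 0–4 °C; nonspecific 10 μM desipramine.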

In general, pKi refers to the negative decadic logarithm of the Ki, by convention in mol/L. Read a low pKi as a high Ki. For `CC(O)CN1CCN(CCSC(c2ccc(F)cc2)c2ccc(F)cc2)CC1` (configuration not stated), the pKi is 4.93.
For `[O-][S+](CCN1CCN(CC(O)Cc2ccccc2)CC1)C(c1ccc(F)cc1)c1ccc(F)cc1` (configuration not stated) the value was 5.08.
